# According to PubChem BioAssay AID504327 (National Center for Advancing Translational Sciences (NCATS), 2011):
# By UniProt entry, the sequences of proteins in these tests, tags left out.
# UniProt Q92830, whole entry: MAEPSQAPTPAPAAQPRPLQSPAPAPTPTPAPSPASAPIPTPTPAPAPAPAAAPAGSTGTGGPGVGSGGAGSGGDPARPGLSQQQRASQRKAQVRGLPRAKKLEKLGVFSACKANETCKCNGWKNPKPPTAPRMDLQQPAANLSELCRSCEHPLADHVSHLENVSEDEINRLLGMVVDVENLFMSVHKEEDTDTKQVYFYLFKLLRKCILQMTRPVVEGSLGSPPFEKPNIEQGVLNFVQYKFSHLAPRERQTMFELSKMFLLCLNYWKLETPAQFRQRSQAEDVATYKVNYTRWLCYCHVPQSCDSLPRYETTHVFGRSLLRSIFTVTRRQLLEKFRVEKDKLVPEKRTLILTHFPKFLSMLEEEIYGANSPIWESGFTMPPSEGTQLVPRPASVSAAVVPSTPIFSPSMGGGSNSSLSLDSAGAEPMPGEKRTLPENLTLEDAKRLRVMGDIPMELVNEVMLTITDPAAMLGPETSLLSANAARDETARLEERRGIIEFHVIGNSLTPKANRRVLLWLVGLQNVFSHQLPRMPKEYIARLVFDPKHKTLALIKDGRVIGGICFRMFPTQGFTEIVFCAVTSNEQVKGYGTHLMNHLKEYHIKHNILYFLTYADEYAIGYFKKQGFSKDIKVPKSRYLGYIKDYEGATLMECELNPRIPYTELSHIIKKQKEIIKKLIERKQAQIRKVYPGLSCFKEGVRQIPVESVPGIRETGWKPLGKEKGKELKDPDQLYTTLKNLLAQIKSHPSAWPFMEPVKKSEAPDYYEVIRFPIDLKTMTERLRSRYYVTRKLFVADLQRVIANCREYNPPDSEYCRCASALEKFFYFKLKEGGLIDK
# “And” between values parts separate entries of the source, which are not always exact repeats. Equal entries are not always repeated. Only a part is listed here, and it is no random draw. Records with an inconclusive call do not appear. The source made the active and inactive calls. The call rests on the fitted dose curve; in most records, active means well fitted inhibition curve with a large enough effect; inconclusive means small, poorly fitted or top-dose-only effect, or another doubt; inactive means no such curve, though single readings can be large or run the other way.
# Target: Histone acetyltransferase KAT2A (Homo sapiens) (UniProt Q92830)
# Assay: qHTS Assay for Inhibitors of GCN5L2
# Details: GCN5L2 HAT assay, ThioGlo1 CoA-SH fluorescence; at 58.9 µM (top of the series) unless noted
# On the % scale 0 is the no-effect control and ±100 the full control effect.
row,SMILES,"activity change, negative = inhibition"
1,COc1ccccc1OP(C)(=O)Nc1ccccc1 (stereo not given),inactive: -3.64%
2,CP(=O)(Nc1ccccc1Br)Oc1ccccc1 (stereo not given),inactive: -9.03%
3,CP(=S)(Nn1cnnc1)Oc1ccccc1 (stereo not given),inactive: 3.31%
4,Cc1cc(C)cc(OP(C)(=O)Nc2ccc(SC(F)(F)F)cc2)c1 (stereo not given),inactive: -11.7%
5,CCc1ccc(OP(C)(=O)N2CCN(c3ccc([N+](=O)[O-])cc3)CC2)cc1 (stereo not given),inactive: -0.177%
6,CP(=O)(NC(=O)Nc1ccccc1)Oc1ccccc1 (stereo not given),inactive: -1.44%
7,CP(=O)(Oc1ccccc1)OC(c1ccccc1)C(F)(F)F (stereo not given),inactive: -3.89%
8,Cc1cccc(C)c1OP(C)(=O)Nc1ccc(SC(F)(F)F)cc1 (stereo not given),inactive: -7.61%
9,CP(=O)(Nc1ccc(SC(F)(F)F)cc1)Oc1ccc(Cl)cc1 (stereo not given),inactive: -3.87%
10,CCOP(C)(=S)SCC(=O)NC(C)C(=O)O (stereo not given),inactive: -1.28%
11,CN(C)CCS,inactive: 0.892%
12,CCOC(=O)c1ccc(NP(C)(=O)Oc2ccc(OC)cc2)cc1 (stereo not given),inactive: -12.8%
13,CCN(CC)CCCOC(=O)C(O)(c1ccccc1)c1ccccc1,inactive: 0.879%
14,O=[N+]([O-])[O-].[NH4+],inactive: 17.8%
15,O=C(O)C(O)(c1ccccc1)c1ccccc1,inactive: 0%
16,Cc1cccc(C)c1OP(C)(N)=O (stereo not given),inactive: -20.6%
17,CC(C)(C)c1ccc(OP(C)(=O)Nc2ccc(SC(F)(F)F)cc2)cc1 (stereo not given),inactive: -18.9%
18,O=[N+]([O-])c1ccc2c(c1)C=Nc1ccccc1O2,inactive: -7.54%
19,O=[N+]([O-])c1cc([N+](=O)[O-])c(Nc2cccnc2)c([N+](=O)[O-])c1,inactive: -2.67%
20,O=C(O)C1(O)c2ccccc2-c2ccccc21,inactive: 0.556%
21,COc1ccc(OP(C)(=O)Nc2cccc(F)c2)cc1 (stereo not given),inactive: 0%
22,COc1ccccc1OP(C)(=O)Nc1cc(Cl)ccc1C (stereo not given),inactive: 5.57%

row,SMILES,"activity change, negative = inhibition"
1,CCOC(=O)c1ccc(NP(C)(=O)Oc2ccccc2)cc1 (stereo not given),inactive: 0.82%
2,Cc1ccc(NP(C)(=O)Oc2ccccc2)c(C)c1 (stereo not given),inactive: -6.32%
3,COc1ccccc1OP(C)(=O)Nc1ccc(C)cc1 (stereo not given),inactive: -2.77%
4,O=[N+]([O-])c1cccc([N+](=O)[O-])c1,inactive: 13.6%
5,O=[N+]([O-])OCC(CO[N+](=O)[O-])(CO[N+](=O)[O-])CO[N+](=O)[O-],inactive: 1.1%
6,CC1=NCCc2c1[nH]c1ccccc21.O=[N+]([O-])c1cc([N+](=O)[O-])c(O)c([N+](=O)[O-])c1,inactive: -13.1%
7,Cc1cc(C)cc(OP(C)(=O)Nc2ccc(C)cc2C)c1 (stereo not given),inactive: -11.6% [at 0.501 µM]
8,CCOC(=O)c1ccc(NP(C)(=O)Oc2cc(C)cc(C)c2)cc1 (stereo not given),inactive: -2.11%
9,CP(=O)(Nc1cccc(Br)c1)Oc1ccccc1 (stereo not given),inactive: -5.99%
10,Cc1cc(C)cc(OP(C)(=O)Nc2ccccn2)c1 (stereo not given),inactive: -1.15%
11,Cc1ccc(C)c(NP(C)(=O)Oc2ccccc2)c1 (stereo not given),inactive: -3.94%
12,O=[N+]([O-])c1cc([N+](=O)[O-])c(-n2nnc3ccccc32)c([N+](=O)[O-])c1,inactive: -14.4%
13,Cc1nc2ccc3ccccc3c2s1.O=[N+]([O-])c1cc([N+](=O)[O-])c(O)c([N+](=O)[O-])c1,inactive: -18.4%
14,O=[N+]([O-])c1cc([N+](=O)[O-])c(Nc2nnnn2CCO)c([N+](=O)[O-])c1,inactive: -8.38%
15,CC1=C2N=C(C=C3N=C(C(C)=C4[N-][C@@](C)([C@@H]5N=C1[C@](C)(CCC(=O)NC[C@@H](C)OP(=O)([O-])O[C@H]1[C@@H](O)[C@@H](n6cnc7cc(C)c(C)cc76)O[C@@H]1CO)[C@H]5CC(N)=O)[C@@](C)(CC(N)=O)[C@@H]4CCC(N)=O)[C@@](C)(CC(N)=O)[C@@H]3CCC(N)=O)C(C)(C)[C@@H]2CCC(N)=O.[C-]#N.[Co+3],inactive: -9.32%
16,CP(=O)(Nc1ccc(SC(F)(F)F)cc1)Oc1ccccc1 (stereo not given),inactive: -2.78%
17,CCCOc1ccc(NP(C)(=O)Oc2ccc(Cl)cc2)cc1 (stereo not given),inactive: -6.61%
18,OCCN(CCO)CCO,inactive: 14.5% and inactive: 38.6%
19,COc1ccccc1OP(C)(=O)Nc1c(C)cccc1C (stereo not given),inactive: -7.61%
20,CN1CCCCC1COC(=O)C1(O)c2ccccc2CCc2ccccc21 (stereo not given),inactive: -2.95%
21,COc1ccc(NP(C)(=O)Oc2ccccc2OC)cc1 (stereo not given),inactive: -6.92%
22,CN(C)CCOC(=O)C(O)(c1ccccc1)C1CCCCC1 (stereo not given),inactive: -2.5%

row,SMILES,"activity change, negative = inhibition"
1,COc1ccc(OP(C)(=O)Nc2cccc(Br)c2)cc1 (stereo not given),inactive: -5.55%
2,Cc1cc(-c2cccc3ccccc23)c(C)cn1.O=[N+]([O-])c1cc([N+](=O)[O-])c(O)c([N+](=O)[O-])c1,inactive: -17.7%
3,O=[N+]([O-])c1ccc(OP2(=O)COCCO2)cc1 (stereo not given),inactive: 2.48%
4,CCOP(C)(=S)SCC(=O)NC(C)(CC)C(=O)O (stereo not given),inactive: -4.42%
5,CP(=O)(Nc1ccc(SC(F)(F)F)cc1)Oc1ccc(F)cc1 (stereo not given),inactive: 0.317%
6,CCN(CCCl)Cc1ccccc1C,inactive: 0.765%
7,Cc1ccccc1NP(C)(=O)Nc1ccccc1C,inactive: -5.96%
8,CP(=O)(Nc1ccc2c(c1)OCCO2)Oc1ccccc1 (stereo not given),inactive: -2.63%
9,CC(C)c1ccc(OP(C)(=O)Nc2ccc(SC(F)(F)F)cc2)cc1 (stereo not given),inactive: -21.1%
10,CP(=O)(Nc1ccccc1F)Oc1ccccc1 (stereo not given),inactive: 1.66%
11,COc1ccc(OP(C)(=O)Nc2ccc(SC(F)(F)F)cc2)cc1 (stereo not given),inactive: -19.5%
12,CCOC(=O)c1ccc(NP(C)(=O)Oc2ccc(F)cc2)cc1 (stereo not given),inactive: -2.23%
13,CCCCCOc1ccc(NP(C)(=O)Oc2ccc(Cl)cc2Cl)cc1 (stereo not given),inactive: -17.5%
14,CP(=O)(Nc1ccccc1)Oc1ccc(F)cc1 (stereo not given),inactive: -15.9%
15,CCN(CC)CCCOC(=O)C(O)(c1ccccc1)C1CCCCC1 (stereo not given),inactive: -3.38%
16,COc1ccc(OP(C)(=O)Nc2ccccc2Br)cc1 (stereo not given),inactive: -4.83%
17,COc1ccccc1OP(C)(=O)Nc1ccc(C)c(C)c1 (stereo not given),inactive: 1.57%
18,CP(=O)(OCCOc1ccccc1)OCCOc1ccccc1,inactive: -7.2%
19,CP(=O)(Nc1ccc(Cl)cc1Cl)Oc1ccccc1 (stereo not given),inactive: -4.38%
20,Cc1nc2ccc3ccccc3c2o1.O=[N+]([O-])c1cc([N+](=O)[O-])c(O)c([N+](=O)[O-])c1,inactive: -22.7%
21,COc1ccc(OP(C)(=O)Nc2ccccn2)cc1 (stereo not given),inactive: -3.33%
22,COc1ccccc1OP(C)(=O)Nc1ccc(Br)cc1 (stereo not given),inactive: -0.239%

row,SMILES,"activity change, negative = inhibition"
1,CCc1ccc(OP(C)(=O)O)cc1,inactive: -9.65%
2,COc1ccccc1OP(C)(=O)Nc1ccc(C)cc1C (stereo not given),inactive: 41.1%
3,O=[N+]([O-])c1cc([N+](=O)[O-])c(Nc2ccccn2)c([N+](=O)[O-])c1,inactive: -1.11%
4,Cc1c(NP(C)(=O)Oc2ccc(C(C)C)cc2)c(=O)n(-c2ccccc2)n1C (stereo not given),inactive: 2.58%
5,CCc1ccc(OP(C)(=O)Nc2cccnc2)cc1 (stereo not given),inactive: -3.31%
6,CP(=O)(Oc1ccccc1)N1CCOC1=O (stereo not given),inactive: 2.66%
7,OCCSCCO,inactive: 20%
8,O=C(OCCCN1CCCC1)C(O)(c1ccccc1)C1CCCCC1 (stereo not given),inactive: -2.8%
9,COc1ccccc1OP(C)(=O)Nc1c(C)n(C)n(-c2ccccc2)c1=O (stereo not given),inactive: 2.47%
10,COc1ccc(OP(C)(=O)Nc2ccc(Br)cc2)cc1 (stereo not given),inactive: 3.78%
11,CCN(CC)CC(O)COC(=O)C(O)(c1ccccc1)C1CCCCC1 (stereo not given),inactive: 1.8%
12,CN(C)C(=O)c1c([N+](=O)[O-])cc([N+](=O)[O-])cc1[N+](=O)[O-],inactive: -1.81%
13,CP(=O)(Nc1ccc(Cl)cc1)Oc1ccc(F)cc1 (stereo not given),inactive: -10.8%
14,CC(C)(C)c1ccc(OP(C)(=O)O)cc1,inactive: -6.06%
15,COc1ccccc1OP(C)(=O)Nc1ccccc1Br (stereo not given),inactive: 1.16%
16,CP(=O)(OC12CC3CC(CC(C3)C1)C2)OC12CC3CC(CC(C3)C1)C2,inactive: -9.26%
17,CCOC(=O)c1ccc(NP(C)(=O)Oc2ccc(Cl)cc2)cc1 (stereo not given),inactive: 0.269%
18,CC(C)OP(=O)(F)OC(C)C,inactive: 1.49%
19,C/C1=C2N=C(/C=C3N=C(/C(C)=C4\[N-][C@@](C)([C@H]5N=C1[C@@](C)(CCC(=O)NC[C@H](C)OP(=O)([O-])O[C@@H]1[C@H](O)[C@H](n6cnc7cc(C)c(C)cc76)O[C@@H]1CO)[C@@H]5CC(N)=O)[C@](C)(CC(N)=O)[C@H]4CCC(N)=O)[C@@](C)(CC(N)=O)[C@@H]\3CCC(N)=O)C(C)(C)[C@@H]/2CCC(N)=O.[C-]#N.[Co+3],inactive: 3.08% [at 21.4 µM]
